# Data: PubChem BioAssay AID504327 (National Center for Advancing Translational Sciences (NCATS), 2011)
# Amino acid sequences for entries named in this document (tags omitted).
# UniProt Q92830, whole entry: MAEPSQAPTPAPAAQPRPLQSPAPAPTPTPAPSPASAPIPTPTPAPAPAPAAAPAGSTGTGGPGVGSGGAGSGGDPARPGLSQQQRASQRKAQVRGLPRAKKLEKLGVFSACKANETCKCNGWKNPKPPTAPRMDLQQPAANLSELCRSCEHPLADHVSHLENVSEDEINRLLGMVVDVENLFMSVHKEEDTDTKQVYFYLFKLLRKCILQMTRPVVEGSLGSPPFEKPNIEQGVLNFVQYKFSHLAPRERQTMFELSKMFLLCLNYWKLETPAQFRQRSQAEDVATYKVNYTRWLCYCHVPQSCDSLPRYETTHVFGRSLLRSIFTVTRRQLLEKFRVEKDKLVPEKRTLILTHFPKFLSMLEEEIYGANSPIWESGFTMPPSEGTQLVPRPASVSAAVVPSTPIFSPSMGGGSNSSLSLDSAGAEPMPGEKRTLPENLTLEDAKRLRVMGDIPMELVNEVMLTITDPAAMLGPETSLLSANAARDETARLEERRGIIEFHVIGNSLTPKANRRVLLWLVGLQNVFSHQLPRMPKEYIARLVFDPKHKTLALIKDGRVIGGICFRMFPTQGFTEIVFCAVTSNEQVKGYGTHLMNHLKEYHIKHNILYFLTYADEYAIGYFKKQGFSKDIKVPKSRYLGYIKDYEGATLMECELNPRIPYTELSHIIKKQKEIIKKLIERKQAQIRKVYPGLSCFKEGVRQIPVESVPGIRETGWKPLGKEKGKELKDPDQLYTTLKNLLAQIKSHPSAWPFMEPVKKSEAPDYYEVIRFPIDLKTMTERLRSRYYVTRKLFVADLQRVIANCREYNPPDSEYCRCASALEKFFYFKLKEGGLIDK
# Only a part is listed here, and it is no random draw. Results filed as inconclusive are left out. Some salts or complexes appear as unconnected parts, following the source record. Calls of active or inactive are those of the source. The call rests on the fitted dose curve; in most records, active means well fitted inhibition curve with a large enough effect; inconclusive means small, poorly fitted or top-dose-only effect, or another doubt; inactive means no such curve, though single readings can be large or run the other way.
# Biological target: Histone acetyltransferase KAT2A (Homo sapiens) (UniProt Q92830)
# Assay: qHTS Assay for Inhibitors of GCN5L2
# Settings: GCN5L2 HAT assay, ThioGlo1 CoA-SH fluorescence; at 58.9 µM (top of the series)
# On the % scale 0 is the no-effect control and ±100 the full control effect.
row,SMILES,"activity change, negative = inhibition"
1,CC(C)(C)OC(=O)N1CCC(Nc2ccccc2)CC1,inactive: 0.499%
2,CCCOc1ccc(C(=O)NCC2(N(C)C)CCCCC2)cc1,inactive: 3.45%
3,COc1cccc(C(=O)N(c2cc(C)cc(C)c2)C2CCN(C(=O)OC(C)(C)C)CC2)c1,inactive: -2.92%
4,COc1cc(C(=O)NCC2(N3CCOCC3)CCCCC2)cc(OC)c1OC,inactive: -8.14%
5,COc1cc(OC)cc(C(=O)NCC2(N3CCOCC3)CCCCC2)c1,inactive: -5.56%
6,CCC(CO)(C(=O)OC1CN2CCC1CC2)c1ccccc1 (configuration not stated),inactive: 2.27%
7,CN1CCC(Nc2ccc(Cl)cc2)CC1,inactive: -0.219%
8,CCCOc1ccc(C)cc1CN(CCCl)CCCl,inactive: 2.52%
9,COc1ccc(C(=O)NCC2(N3CCCCC3)CCCCC2)c(OC)c1OC,inactive: -1.62%
10,CC(C)(C)OC(=O)N1CCC(N(C(=O)c2ccccc2)c2ccc(F)cc2)CC1,inactive: -2.97%
11,COc1ccc(C(=O)NCC2(N3CCCCC3)CCCCC2)cc1,inactive: -0.237%
12,O=C(NCC1(N2CCCCC2)CCCCC1)c1cccs1,inactive: -1.7%
13,O=C(NCC1(N2CCCCC2)CCCCC1)c1ccc(=O)[nH]c1,inactive: 3.7%
14,CSc1ccccc1C(=O)NCC1(N2CCCCC2)CCCCC1,inactive: 2.97%
15,Cc1cc(C)cc(N(C(=O)c2ccccc2)C2CCN(C(=O)OC(C)(C)C)CC2)c1,inactive: -10.6%
16,O=C(NCC1(N2CCCCC2)CCCCC1)c1ccc(Cl)nc1,inactive: -5.82%
17,O=C(NCC1(N2CCOCC2)CCCCC1)c1cc2ccccc2o1,inactive: -0.845%
18,COc1ccc(Cl)cc1C(=O)NCC1(N2CCOCC2)CCCCC1,inactive: -3.97%
19,N#CC1(Nc2ccccc2)CCN(Cc2ccccc2)CC1,inactive: -3.5%

row,SMILES,"activity change, negative = inhibition"
1,O=C(NCC1(N2CCCCC2)CCCCC1)c1ccc(Cl)s1,inactive: 0.375%
2,O=C(OC1CN2CCC1CC2)C1c2ccccc2Oc2ccccc21 (configuration not stated),inactive: -8.7%
3,CCOC(=O)N1CCC(Nc2ccc(OC)cc2)CC1,inactive: 9.01%
4,O=C(NCC1(N2CCOCC2)CCCCC1)c1ccc(Cl)cc1,inactive: -5.96%
5,CCOc1ccc(C)cc1CN(CCCl)CCCl,inactive: 1.5%
6,COc1ccccc1C(=O)NCC1(N2CCOCC2)CCCCC1,inactive: 0.869%
7,CCOC(=O)N1CCC(Nc2ccc(F)cc2)CC1,inactive: -4.37%
8,COc1ccc(NC2CCN(CCc3ccccc3)CC2)c(OC)c1,inactive: -3.61%
9,CCCCOc1ccc(C(=O)NCC2(N3CCOCC3)CCCCC2)cc1,inactive: 1.71%
10,O=C(NCC1(N2CCCCC2)CCCCC1)c1ccc(F)cc1,inactive: -0.903%
11,Cc1ccc(OCC(C)C)c(CN(CCCl)CCCl)c1,inactive: -11.9%
12,CCOC(=O)N1CCC(Nc2cccc(C)c2)CC1,inactive: -8.78%
13,COc1cc(C(=O)NCC2(N(C)C)CCCCC2)ccc1OC(F)F,inactive: -5.55%
14,O=C(NCC1(N2CCCCC2)CCCCC1)c1ccc(OC(F)F)cc1,inactive: -5.48%
15,N#CC1(Nc2ccccc2)CCN(CCc2ccccc2)CC1,inactive: -8.82%
16,CCN1CCC(Nc2ccc(Cl)cc2)CC1,inactive: -6.1%
17,CSc1ccc(C(=O)NCC2(N3CCOCC3)CCCCC2)cc1,inactive: 1.01%
18,CCOc1ccc(C(=O)NCC2(N3CCOCC3)CCCCC2)cc1,inactive: -16.5%
19,O=C(NCC1(N2CCCCC2)CCCCC1)c1cccc([N+](=O)[O-])c1,inactive: -3.28%

row,SMILES,"activity change, negative = inhibition"
1,O=[N+]([O-])c1cc([N+](=O)[O-])c(NCC2CCS(=O)(=O)C2)c([N+](=O)[O-])c1 (configuration not stated),inactive: -5.87%
2,O=C(NCC1(N2CCCCC2)CCCCC1)c1cccc(C(F)(F)F)c1,inactive: -2.02%
3,O=C(NCC1(N2CCOCC2)CCCCC1)c1cc(=O)[nH]c2ccccc12,inactive: 0%
4,COc1cc(C(=O)NCC2(N3CCCCC3)CCCCC2)ccc1OC(F)F,inactive: 1.16%
5,COc1ccc(NC2CCN(C(=O)OC(C)(C)C)CC2)cc1,inactive: -4.47%
6,CC(C)c1ccc(C(=O)NCC2(N3CCOCC3)CCCCC2)cc1,inactive: -5.51%
7,CN1CCN(CCOC(=O)C(O)(c2ccccc2)c2ccccc2)CC1,inactive: -0.584%
8,CC(C)c1ccc(NC2CCN(C(=O)OC(C)(C)C)CC2)cc1,inactive: -18.6%
9,CN(C)c1cccc(C(=O)NCC2(N3CCCCC3)CCCCC2)c1,inactive: -8.44%
10,O=[N+]([O-])c1cc([N+](=O)[O-])c(OC2CCCCC2O)c([N+](=O)[O-])c1 (configuration not stated),inactive: -17.3%
11,COc1ccc(CN(CCCl)CCCl)cc1Cl,inactive: -1.64%
12,O=C(NCC1(N2CCOCC2)CCCCC1)c1cc(F)c(F)cc1Cl,inactive: -0.817%
13,COc1cc(OC)c(C(=O)NCC2(N(C)C)CCCCC2)cc1OC,inactive: -20.7%
14,O=C(OC1CN2CCC1CC2)c1ccc([N+](=O)[O-])cc1 (configuration not stated),inactive: -1.23%
15,O=C(NCC1(N2CCCCC2)CCCCC1)c1cncc(Br)c1,inactive: 4.32%
16,COc1ccc2c(c1O)-c1c(O)c(OC)cc3c1[C@H](C2)[N+](C)(C)CC3.O=[N+]([O-])c1cc([N+](=O)[O-])c([O-])c([N+](=O)[O-])c1[O-],inactive: -7.96%
17,O=C(NCC1(N2CCOCC2)CCCCC1)c1ccccc1Br,inactive: -7.36%
18,CCCOc1ccc(C(=O)NCC2(N(C)C)CCCCC2)cc1OC,inactive: 31.8%
19,CCCCOc1ccccc1C(=O)NCC1(N2CCOCC2)CCCCC1,inactive: -11.5%
